# From patent US10435400B2, “2,4-disubstituted phenylene-1,5-diamine derivatives and applications thereof, and pharmaceutical compositions and pharmaceutically acceptable compositions prepared therefrom” (SHANGHAI HAIYAN PHARMACEUTICAL TECHNOLOGY CO., LTD., priority 2014, dated 2019)
# By UniProt entry, the sequences of proteins in these tests, tags left out. Residues count along the entry.
# UniProt P00533, 25-1210 T790M/L858R limits assumed: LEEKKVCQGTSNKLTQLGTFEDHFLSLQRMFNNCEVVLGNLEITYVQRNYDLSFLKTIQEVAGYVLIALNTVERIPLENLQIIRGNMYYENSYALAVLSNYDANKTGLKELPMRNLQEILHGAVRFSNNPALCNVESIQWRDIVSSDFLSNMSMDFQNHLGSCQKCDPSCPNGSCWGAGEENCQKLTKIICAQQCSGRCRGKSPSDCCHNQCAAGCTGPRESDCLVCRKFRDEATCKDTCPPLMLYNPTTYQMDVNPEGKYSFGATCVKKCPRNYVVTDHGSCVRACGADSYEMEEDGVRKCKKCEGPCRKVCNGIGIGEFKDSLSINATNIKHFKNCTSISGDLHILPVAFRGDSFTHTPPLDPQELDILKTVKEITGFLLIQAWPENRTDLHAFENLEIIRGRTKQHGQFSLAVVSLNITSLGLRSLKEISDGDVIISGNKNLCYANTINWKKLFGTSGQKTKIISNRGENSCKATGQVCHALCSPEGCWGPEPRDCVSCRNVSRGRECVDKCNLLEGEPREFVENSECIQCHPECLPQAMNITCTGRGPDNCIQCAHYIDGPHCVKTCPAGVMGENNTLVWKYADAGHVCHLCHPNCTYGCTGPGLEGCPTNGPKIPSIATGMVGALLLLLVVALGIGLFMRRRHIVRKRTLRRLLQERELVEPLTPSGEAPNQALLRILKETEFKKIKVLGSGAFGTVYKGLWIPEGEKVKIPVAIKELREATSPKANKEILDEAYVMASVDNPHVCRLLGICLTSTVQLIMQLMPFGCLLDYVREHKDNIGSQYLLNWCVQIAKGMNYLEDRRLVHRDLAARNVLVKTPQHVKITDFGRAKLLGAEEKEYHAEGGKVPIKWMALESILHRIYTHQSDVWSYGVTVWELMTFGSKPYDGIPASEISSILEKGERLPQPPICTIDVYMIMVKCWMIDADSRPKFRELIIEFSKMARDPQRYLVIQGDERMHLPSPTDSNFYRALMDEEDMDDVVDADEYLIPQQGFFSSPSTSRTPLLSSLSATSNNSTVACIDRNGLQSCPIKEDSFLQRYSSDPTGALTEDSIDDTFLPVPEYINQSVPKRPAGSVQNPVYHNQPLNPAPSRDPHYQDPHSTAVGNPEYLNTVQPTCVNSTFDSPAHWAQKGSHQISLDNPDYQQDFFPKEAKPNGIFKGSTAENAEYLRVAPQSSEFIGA
# Biological target: EGFR T790M/L858R kinase (Homo sapiens (Human), UniProt P00533, L858R/T790M)
Compound,selectivity ratio,IC50 [nM]
C=CC(=O)Nc1cc(Nc2ncc(Cl)c(-c3cnc4c(cnn4C)c3)n2)c(OC)cc1N1CCC(N(C)C)CC1 [Compound Z-40],17.9,
C=CC(=O)Nc1cc(Nc2nccc(-c3cnc4c(ccn4C)c3)n2)c(OC)cc1N(C)CCN(C)CC [Compound Z-105],2.3,
C=CC(=O)Nc1cc(Nc2nccc(-c3cnc4c(ccn4C)c3)n2)c(OC)cc1N(C)CCN1CCCC1 [Compound Z-112],3.1,
C=CC(=O)Nc1cc(Nc2nccc(-c3cnc4c(ccn4C)c3)n2)c(OC)cc1OCCN(C)C [Compound Z-117],4,
C=CC(=O)Nc1cc(Nc2ncc(F)c(-c3cnc4c(cnn4C)c3)n2)c(OC)cc1N(C)CCN(C)C [Compound Z-41],2.2,
C=CC(=O)Nc1cc(Nc2nccc(-c3cnc4c(ccn4C)c3)n2)c(OC)cc1N(C)CCNC [Compound Z-106],2,
C=CC(=O)Nc1cc(Nc2ncc(Cl)c(-c3cnc4c(ccn4C)c3)n2)c(OC)cc1N(C)CCNC [Compound Z-116],6.2,
C=CC(=O)Nc1cc(Nc2nccc(-c3cnc4c(ccn4C(C)C)c3)n2)c(OC)cc1N(C)CCN(C)C [Compound Z-124],3.25,
C=CC(=O)Nc1cc(Nc2ncc(F)c(-c3cnc4c(c3)c(Cl)cn4C)n2)c(OC)cc1N(C)CCN(C)C [Compound Z-123],3,
C=CC(=O)Nc1cc(Nc2ncc(Cl)c(-c3cnc4c(ccn4C4CC4)c3)n2)c(OC)cc1N(C)CCN(C)C [Compound Z-126],3.5,
C=CC(=O)Nc1cc(Nc2ncc(Cl)c(-c3cnc4c(c3)c(Cl)cn4C)n2)c(OC)cc1N(C)CCN(C)C [Compound Z-121],4.7,
C=CC(=O)Nc1cc(Nc2ncc(Cl)c(-c3cnc4c(ccn4C(C)C)c3)n2)c(OC)cc1N(C)CCN(C)C [Compound Z-125],7,
C=CC(=O)Nc1cc(Nc2nccc(-c3cnc4c(ccn4C)c3)n2)c(OC)cc1N(C)CCN(CC)CC [Compound Z-107],4,
C=CC(=O)Nc1cc(Nc2ncc(F)c(-c3cnc4c(ccn4C)c3)n2)c(OC)cc1N1CCC(N(C)C)CC1 [Compound Z-29],3.1,
C=CC(=O)Nc1cc(Nc2nccc(-c3cnc4c(ccn4C)c3)n2)c(OC)cc1N1CCN(C)CC1 [Compound Z-26],4.2,
C=CC(=O)Nc1cc(Nc2nccc(-c3cnc4c(ccn4C)c3)n2)c(OC)cc1N1CC(N(C)C)C1 [Compound Z-27],4.8,

Compound,selectivity ratio,IC50 [nM]
C=CC(=O)Nc1cc(Nc2ncc(Cl)c(-c3cnc4c(ccn4C)c3)n2)c(OC)cc1N(C)CCN(C)CC [Compound Z-109],4.7,
C=CC(=O)Nc1cc(Nc2ncc(Cl)c(-c3cnc4c(ccn4C)c3)n2)c(OC)cc1N1CC(N(C)C)C1 [Compound Z-113],8.1,
C=CC(=O)Nc1cc(Nc2nccc(-c3cnc4c(ccn4C)c3)n2)c(OC)cc1N(C)CCN(C)C(C)C [Compound Z-115],3.7,
C=CC(=O)Nc1cc(Nc2ncc(F)c(-c3cnc4c(cnn4C)c3)n2)c(OC)cc1N1CCC(N(C)C)CC1 [Compound Z-37],17.8,
C=CC(=O)Nc1cc(Nc2ncc(Cl)c(-c3cnc4c(cnn4C)c3)n2)c(OC)cc1N(C)CCN(C)C [Compound Z-39],8.25,
C=CC(=O)Nc1cc(Nc2ncc(OC)c(-c3cnc4c(cnn4C)c3)n2)c(OC)cc1N1CCC(N(C)C)CC1 [Compound Z-38],2.2,
C=CC(=O)Nc1cc(Nc2ncc(Cl)c(-c3cnc4c(ccn4C)c3)n2)c(OC)cc1NCCCN(C)C [Compound Z-114],8.3,14
C=CC(=O)Nc1cc(Nc2ncc(F)c(-c3cnc4c(c3)c(Cl)cn4C)n2)c(OC)cc1N1CCC(N(C)C)CC1 [Compound Z-122],5,
"C=CC(=O)Nc1cc(Nc2ncc(Cl)c(-c3cnc4c(ccn4C)c3)n2)c(OC)cc1N(C)CCN(C)C [Compound Z-1, N-(5-(5-chloro-4-(1-methyl-1H-pyrrolo[2,3-b]pyridin-5-yl)pyrimidin-2-amino)-2-((2-(dimethylamino)ethyl)methylamino)-4-methoxyphenyl)acrylamide]",8.33,
C=CC(=O)Nc1cc(Nc2nccc(-c3ccc4c(ccn4C)c3)n2)c(OC)cc1N(C)CCN(C)C [Compound Z-87],2.7,3
C=CC(=O)Nc1cc(Nc2ncc(F)c(-c3cnc4c(ccn4C)c3)n2)c(OC)cc1OCCN(C)C [Compound Z-118],3,
C=CC(=O)Nc1cc(Nc2ncc(Cl)c(-c3ccc4c(ccn4C)c3)n2)c(OC)cc1N(C)CCN(C)C [Compound Z-88],3.7,3
C=CC(=O)Nc1cc(Nc2nccc(-c3cnc4c(ccn4C)c3)n2)c(OC)cc1N1CCC(N(C)C)CC1 [Compound Z-25],5.1,
C=CC(=O)Nc1cc(Nc2ncc(OC)c(-c3cnc4c(cnn4C)c3)n2)c(OC)cc1N(C)CCN(C)C [Compound Z-44],3.8,
C=CC(=O)Nc1cc(Nc2ncc(C(=O)OC)c(-c3cnc4c(ccn4C)c3)n2)c(OC)cc1N(C)CCN(C)C [Compound Z-32],2,2
